Assay results published in BindingDB's records for PubMed 10347254 (R. W. Johnson Pharmaceutical Research Institute, 1999).

Sequences of proteins named here, by UniProt entry; tags and fusion partners are left off. A change or cut given only in a name is not applied to a line headed by its entry.
UniProt Q9Y5N1: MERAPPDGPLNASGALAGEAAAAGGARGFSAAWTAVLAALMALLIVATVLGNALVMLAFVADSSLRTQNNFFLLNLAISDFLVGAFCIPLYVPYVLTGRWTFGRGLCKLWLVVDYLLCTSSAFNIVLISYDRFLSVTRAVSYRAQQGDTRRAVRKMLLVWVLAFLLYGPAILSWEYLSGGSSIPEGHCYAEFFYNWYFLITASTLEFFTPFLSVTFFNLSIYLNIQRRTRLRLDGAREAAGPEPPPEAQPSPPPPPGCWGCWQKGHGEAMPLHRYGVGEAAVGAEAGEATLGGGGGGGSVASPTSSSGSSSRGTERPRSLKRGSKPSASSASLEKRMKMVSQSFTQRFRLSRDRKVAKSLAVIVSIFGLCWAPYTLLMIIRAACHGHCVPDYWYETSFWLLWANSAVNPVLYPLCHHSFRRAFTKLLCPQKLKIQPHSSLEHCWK

Biological target: Histamine H3 receptor (Homo sapiens, UniProt Q9Y5N1)

`NC(=NCc1ccc(Cl)cc1)SCCCc1cnc[nH]1` [VUF 9153] gave a Ki greater than 10 µM.
